Source: PMC5865166, “MultiBacMam Bimolecular Fluorescence Complementation (BiFC) tool-kit identifies new small-molecule inhibitors of the CDK5-p25 protein-protein interaction (PPI)” (Scientific Reports, 2018)

Sequences of proteins named here, by UniProt entry; tags and fusion partners are left off.
UniProt Q8NB16, whole entry: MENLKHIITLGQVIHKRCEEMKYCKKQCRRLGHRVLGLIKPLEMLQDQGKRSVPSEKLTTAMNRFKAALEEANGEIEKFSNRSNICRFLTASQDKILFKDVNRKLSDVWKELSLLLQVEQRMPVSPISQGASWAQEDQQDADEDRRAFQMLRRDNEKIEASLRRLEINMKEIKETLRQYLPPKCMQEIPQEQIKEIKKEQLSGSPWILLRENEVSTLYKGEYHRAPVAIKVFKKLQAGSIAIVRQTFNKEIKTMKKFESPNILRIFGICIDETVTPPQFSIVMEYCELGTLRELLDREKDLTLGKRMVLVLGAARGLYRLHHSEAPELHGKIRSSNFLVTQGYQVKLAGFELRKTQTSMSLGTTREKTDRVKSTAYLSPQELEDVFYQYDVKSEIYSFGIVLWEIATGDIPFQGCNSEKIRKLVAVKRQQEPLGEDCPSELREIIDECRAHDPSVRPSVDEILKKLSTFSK
UniProt Q9Y572, whole entry: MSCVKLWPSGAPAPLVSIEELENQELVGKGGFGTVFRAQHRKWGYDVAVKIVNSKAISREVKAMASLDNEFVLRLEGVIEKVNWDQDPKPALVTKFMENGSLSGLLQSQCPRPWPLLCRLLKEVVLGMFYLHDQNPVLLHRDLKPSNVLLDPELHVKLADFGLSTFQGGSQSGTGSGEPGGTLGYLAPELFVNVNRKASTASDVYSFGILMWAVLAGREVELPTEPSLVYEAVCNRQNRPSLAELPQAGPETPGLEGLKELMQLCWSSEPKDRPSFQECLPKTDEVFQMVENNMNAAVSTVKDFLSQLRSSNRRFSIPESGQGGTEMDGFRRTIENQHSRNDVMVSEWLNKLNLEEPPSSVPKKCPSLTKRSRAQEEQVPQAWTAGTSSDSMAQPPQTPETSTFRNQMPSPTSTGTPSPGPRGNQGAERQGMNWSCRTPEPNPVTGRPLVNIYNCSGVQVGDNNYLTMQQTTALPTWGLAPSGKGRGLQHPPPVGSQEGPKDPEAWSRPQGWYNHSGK

Assays:
[1] = test system: CDK5-p25 PPI; assay: MultiBacMam BiFC assay of CDK5-p25 PPI in transduced U2OS cells (VN-CDK5(D144N)/VC-p25); details: read-out: IC50 (percentage of BiFC positive cells); 16 h treatment, dose-response
[2] = test system: Tau dimerization; assay: Tau BiFC counter assay in transduced U2OS cells (VN-TAU/VC-TAU)
[3] = target: MLKL-RIPK3 PPI (Homo sapiens, UniProt Q8NB16+Q9Y572); assay: MLKL-RIPK3 BiFC counter assay in transduced U2OS cells (VN-MLKL/VC-RIPK3)

CCC(C)(C)C(=O)N1Cc2c(Nc3cccc(OC)n3)n[nH]c2C1(C)C
pIC50 [1]: 5.86
BiFC signal in Tau counter assay ([2]; 10 μM): almost complete loss of BiFC signal
pIC50 ([2]; Tau BiFC counter assay): 5.49
BiFC signal in MLKL-RIPK3 counter assay ([3]; 10 μM): almost complete loss of BiFC signal
pIC50 ([3]; MLKL-RIPK3 BiFC counter assay): 5.23

pIC50: −log10 of the molar value.
